{"source": "patent US7229825B2", "about": "“Double-transfected cell line useful for the identification of transport inhibitors” (Deutches Krebsforschungszentrum Stiftung des Offentlichen …, priority 2001, dated 2007)", "test_system": "human OATP8 and MRP2 (MDCK-MRP2/OATP8 cells)", "test": "Inhibition of transcellular [3H]BSP transport in MDCK-MRP2/OATP8 cells", "format": "cell-based", "conditions": "different concentrations, 1 μM [3H]BSP, 30 min, 37° C."}
{"substance": "HSA: human serum albumin", "values": [{"measurement": "effect on intracellular accumulation of [3H]BSP in MDCK-MRP2/OATP8 cells", "result": "strongly inhibited"}, {"measurement": "effect on transcellular transport of [3H]BSP in MDCK-MRP2/OATP8 cells", "result": "diminished"}]}
